Measured values from US7700602B2, “Amino-5,5-diphenylimidazolone derivatives for the inhibition of β-secretase” (Wyeth LLC, priority 2004, dated 2010).

Amino acid sequences for entries named in this document (tags omitted). Residues count along the entry.
UniProt Q9Y5Z0, 63-518 limits assumed: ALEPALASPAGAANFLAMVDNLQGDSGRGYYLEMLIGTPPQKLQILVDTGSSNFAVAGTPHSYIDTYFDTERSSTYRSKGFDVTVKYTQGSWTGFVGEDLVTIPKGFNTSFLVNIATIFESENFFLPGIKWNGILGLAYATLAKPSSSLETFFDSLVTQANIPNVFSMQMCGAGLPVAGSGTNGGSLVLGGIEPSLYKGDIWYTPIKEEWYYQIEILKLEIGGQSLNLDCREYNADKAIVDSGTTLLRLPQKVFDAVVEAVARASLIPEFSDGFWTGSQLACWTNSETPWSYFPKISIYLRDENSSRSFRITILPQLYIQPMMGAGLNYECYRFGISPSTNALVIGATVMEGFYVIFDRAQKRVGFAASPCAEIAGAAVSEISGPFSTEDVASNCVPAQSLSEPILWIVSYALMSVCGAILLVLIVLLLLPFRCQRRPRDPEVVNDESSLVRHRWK
UniProt P56817, 46-501 limits assumed: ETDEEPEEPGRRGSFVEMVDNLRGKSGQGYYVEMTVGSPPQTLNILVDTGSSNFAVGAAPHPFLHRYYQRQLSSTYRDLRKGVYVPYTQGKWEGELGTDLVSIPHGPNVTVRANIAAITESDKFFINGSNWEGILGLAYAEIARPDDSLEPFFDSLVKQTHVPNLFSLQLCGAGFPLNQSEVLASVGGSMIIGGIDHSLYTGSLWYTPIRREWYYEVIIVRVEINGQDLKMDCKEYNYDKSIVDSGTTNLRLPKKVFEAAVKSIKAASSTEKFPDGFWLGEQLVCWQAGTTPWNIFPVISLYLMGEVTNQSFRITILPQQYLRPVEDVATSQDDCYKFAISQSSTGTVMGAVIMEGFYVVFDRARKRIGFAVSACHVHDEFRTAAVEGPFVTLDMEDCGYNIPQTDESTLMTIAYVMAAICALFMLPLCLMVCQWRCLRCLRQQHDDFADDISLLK

How the values were obtained:
human BACE2 = human BACE2 (Homo sapiens, UniProt Q9Y5Z0); test: Fluorescent Kinetic Assay for Human Recombinant BACE 2 (selectivity BACE1/BACE2); assay type: biochemical; conditions: selectivity BACE1 over BACE2; 1.5 nM human BACE2, 25 μM substrate, pH 4.5;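 further: cleavage rate from the linear slope of fluorescence (excitation 320 nm, emission 420 nm) recorded every 40 s over 30 min at room temperature, sodium acetate buffer with 0.05% CHAPS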
human BACE1 = human BACE1 (Homo sapiens, UniProt P56817); test: Fluorescent kinetic assay, inhibition of BACE1 (WABC-6 peptide substrate); assay type: biochemical; conditions: read-out: IC50 (μM) BACE1; 10 nM enzyme, 25 μM substrate WABC-6, pH 4.5, room temperature;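 further: fluorescence monitored at 320 nm excitation and 420 nm emission every 40 s over 30 min, with the substrate cleavage rate taken from the linear slope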

Structure (SMILES)	BACE1/BACE2 selectivity (human BACE2)	IC50 (human BACE1) [µM]
COc1ccc(C2(c3cccc(-c4cnccn4)c3)N=C(N)N(C)C2=O)cc1C(F)(F)F (stereo not shown)	II (II = 10-100-fold selectivity)	0.01 to 0.1
CN1C(=O)C(c2ccc(OCCF)cc2)(c2cccc(-c3cncnc3)c2)N=C1N (stereo not shown)	I (I = >100-fold selectivity)	0.01 to 0.1
